Laboratory results reported in patent US8158764B2 (priority 2006, dated 2012).

What was measured:
[1] = Tail flick test (analgesic activity); format: in vivo
Description: The “Tail flick” test (test of D'Amour & Smith, 1941, Pharmacol Exp Ther; 72: 74-79) consists in placing the tail of a mouse, after administration of a product, in front of an infrared source in order to produce a nociceptive stimulus (a surface temperature of 55° C.). The reaction time (RT) of the mouse (latency between the start of the light beam and the moment the mouse withdraws its tail) was measured in duplicate at 8 times spread from […] after administration of the product. A maximal 10 second-period has been chosen as the maximal reaction time in order to avoid any tissue damage for the animal.
Products were intravenously-administered at doses comprised between 0.5 and 8 mg/kg (8 mice per group).
Two measures of reaction time were realized before administration of the product for each mouse so as to establish a base line.
The MPE % represents the percentage of possible maximal effect and corresponds to the following formula: […]

[2] = Hot plate test (analgesic activity); format: in vivo; details: mouse, intravenous
[3] = Intestinal transit in mice

For `CN1CC[C@]23c4c5ccc(O)c4O[C@H]2[C@@H](O)C=C[C@H]3[C@H]1C5` [Morphine, reference compound], which ED50 ([1]; Mus musculus, iv) is on record?
Its ED50 is 3.3 mg/kg.

What about the “ED50, tail flick test” value ([1]; mouse, intravenous) of the same compound?
Its value is 3.273 mg/kg.

What about the “Max Effect (time), tail flick test” value ([1]; mouse, intravenous) of the same compound?
Its value is 30 min.

And the ED50 [2]?
Its ED50 is 3.8 mg/kg.

What about the “Effet max (time), hot plate test” value [2] of the same compound?
The value was 30 min.

What about the transit inhibition ([3]; at the maximal analgesic effect after iv injection at ED50) of the same compound?
Its transit inhibition is “about 90%”.

What about the “effect on transit while analgesic activity is maintained at maximum” value ([3]; in words) of the same compound?
The value was “transit is completely stopped”.

And the transit inhibition ([3]; maintenance of maximal analgesia during 6 h30, two-fold ED50 (morphine re-injected every hour))?
The transit inhibition was 82%.
